GIV Gai3 FP: blocks GIV peptide binding to rat Galpha-i3. P08753. Galpha-i3/FITC-GIV peptide fluorescence polarization, 90 min; stronger effect = lower value; scaled: aluminum fluoride 0%, vehicle 100%. percent of control (FP), % (test concentration not listed). 0.42% of 210,000 active. AID 1224905;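 active = replicate mean at 85% of control or lower, very high polarization wells dropped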;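 also: wells of about 15 µL received 100 nL stock; the first replicate is given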
HCMV NEC inh: inhibitors of HCMV UL50-UL53 nuclear egress complex interaction; 190,000 tested, 0.15% active; HTRF UL50-UL53 interaction, normalized percent inhibition; inhibition, % (concentration not given with the values); in the data active = inhibition above about 27%, passing the limit was not always enough
GIV Gai FP conf: confirmation of inhibitors of GIV binding to rat Galpha-i3. shares compounds with GIV Gai3 FP. FITC-GIV peptide binding to Galphai3, fluorescence polarization; hits give low values. fluorescence polarization, mP at 100 µM. 580 tested, 38% active. AID 1259350;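 active = inhibition score of 15 or more, meaning 100 minus mean polarization as percent of control over three replicates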;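 also: lower mP means peptide displaced from Galphai3 so more inhibition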
GIV-Gai AS conf: GIV-Galpha-i3 inhibition, AlphaScreen confirmation; AlphaScreen Galphai3-GIV binding, purified proteins, 90 min; hits give low values; 580 tested, 39% active; AID 1259351; AlphaScreen counts at 100 µM; shares compounds with GIV Gai3 FP;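 active = inhibition score at or above a set limit, where the score is 100 minus the three-replicate mean percent of control signal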
Active calls of the source: *; . = not tested or not shown. Hits are enriched below; roughly 0.43% of the tested compounds scored in any of these assays.

Keys – A = GIV Gai3 FP; B = HCMV NEC inh; C = GIV Gai FP conf; D = GIV-Gai AS conf
compound: COC(=O)c1sccc1S(=O)(=O)N1c2ccccc2NC(=O)CC1C (stereo unspecified)
  A: 101	B: -14	C: .	D: .

compound: CCCCCN1C(C(=O)c2ccccc2)=C(NC(=O)c2ccc(C)cc2)c2ccccc2S1(=O)=O
  A: 106	B: -7	C: .	D: .

compound: CCN1C(C(=O)c2ccccc2)=C(NC(=O)c2ccccc2)c2ccccc2S1(=O)=O
  A: 55*	B: -4	C: 20*	D: 46797

compound: CCN(CC)c1ncc(NS(=O)(=O)c2cc(C)c(C)cc2C)cc1C(=O)O
  A: 107	B: -40	C: .	D: .

compound: CCCCN(C)c1ncc(C(=O)O)cc1NS(=O)(=O)c1cc(F)ccc1F
  A: 112	B: -46	C: .	D: .

compound: CCN(CC)c1ncc(C(=O)O)cc1NS(=O)(=O)c1c(C)cc(C)cc1C
  A: 81*	B: -21	C: 71	D: 22183

compound: CCN(CCN(C)C)c1ncc(NS(=O)(=O)c2cc(C)c(C)cc2C)cc1C(=O)O
  A: 58*	B: -42	C: 43*	D: 27195

compound: Cc1cc(C)cc(S(=O)(=O)Nc2cc(C(=O)O)cnc2N(CC(C)C)CC(C)C)c1
  A: 117	B: -34	C: .	D: .

compound: CCN(CCN(C)C)c1ncc(C(=O)O)cc1NS(=O)(=O)c1ccc(C(C)C)cc1
  A: 60*	B: -18	C: 41*	D: 35632

compound: CC(C)c1ccc(S(=O)(=O)Nc2cc(C(=O)O)ccc2N(C)C)cc1
  A: 103	B: 11	C: .	D: .

compound: CCN(CCN(C)C)c1ncc(C(=O)O)cc1NS(=O)(=O)c1ccc(F)c(F)c1
  A: 61*	B: -13	C: 36*	D: 38193

compound: Cc1cccc(NC(=O)C2CCN(S(=O)(=O)c3cccc4cccnc34)CC2)c1C
  A: 107	B: -3	C: .	D: .

compound: CCC(CC)C(=O)N1CCC2(CC1)Nc1cc(F)ccc1-n1cccc12
  A: 105	B: -42	C: .	D: .

compound: COC(=O)CCC(=O)c1oc2ccc(Cl)cc2c1N
  A: 98	B: -28	C: .	D: .

compound: CN1CCN(c2ccc(C(=O)O)cc2NS(=O)(=O)c2ccccc2)CC1
  A: 112	B: -9	C: .	D: .

compound: CN(C)c1ncc(C(=O)O)cc1NS(=O)(=O)c1ccccc1
  A: 49*	B: -38	C: 36*	D: 8377*

compound: CCN1/C(=C\C=C\c2n(CC)c3cc(Cl)c(Cl)cc3[n+]2CCCS(=O)(=O)[O-])N(CCCS(=O)(=O)O)c2cc(Cl)c(Cl)cc21
  A: 79*	B: .	C: 74	D: 10331*

2 records picked at random from the list so far:
Keys – A = GIV Gai3 FP; B = HCMV NEC inh; C = GIV Gai FP conf; D = GIV-Gai AS conf
compound: CCN(CCN(C)C)c1ncc(C(=O)O)cc1NS(=O)(=O)c1ccc(F)c(F)c1
  A: 61*	B: -13	C: 36*	D: 38193

compound: CC(C)c1ccc(S(=O)(=O)Nc2cc(C(=O)O)ccc2N(C)C)cc1
  A: 103	B: 11	C: .	D: .
